What was measured:
[1] = system: A549 cells; experiment: Induction of PGE2 from IL1-β treated A549 cells; details: read-out: Elevation of PGE2 in A549 cell culture media (EC50); A549 cells stimulated with IL1-β for 24 hours
[2] = Human microsome stability; details: human microsomes
[3] = target: colon 15-PGDH (Mus musculus, UniProt Q8VCC1); experiment: Colon 15-PGDH activity 30 minutes after oral dosing of mice at 10 mg/kg; details: for Colon enzyme inhibition 30 min following 10 mpk PO: mice; for inhibition of colon 15-PGDH activity at 30 minutes: given orally to mice at 10 mpk, negative value = increased activity
[4] = target: hERG (Homo sapiens, UniProt Q12809); experiment: hERG IC50; details: read-out: hERG IC50 (μm)

The chains behind the UniProt entries cited, without tags or fusion partners.
UniProt Q8VCC1, whole entry: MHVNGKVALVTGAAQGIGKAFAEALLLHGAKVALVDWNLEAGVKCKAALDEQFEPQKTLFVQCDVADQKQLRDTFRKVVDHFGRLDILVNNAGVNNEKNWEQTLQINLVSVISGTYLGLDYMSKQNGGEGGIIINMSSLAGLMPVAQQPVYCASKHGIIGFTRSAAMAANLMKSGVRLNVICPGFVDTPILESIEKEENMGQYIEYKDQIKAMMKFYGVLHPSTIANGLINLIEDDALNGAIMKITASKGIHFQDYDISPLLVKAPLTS
UniProt Q12809, whole entry: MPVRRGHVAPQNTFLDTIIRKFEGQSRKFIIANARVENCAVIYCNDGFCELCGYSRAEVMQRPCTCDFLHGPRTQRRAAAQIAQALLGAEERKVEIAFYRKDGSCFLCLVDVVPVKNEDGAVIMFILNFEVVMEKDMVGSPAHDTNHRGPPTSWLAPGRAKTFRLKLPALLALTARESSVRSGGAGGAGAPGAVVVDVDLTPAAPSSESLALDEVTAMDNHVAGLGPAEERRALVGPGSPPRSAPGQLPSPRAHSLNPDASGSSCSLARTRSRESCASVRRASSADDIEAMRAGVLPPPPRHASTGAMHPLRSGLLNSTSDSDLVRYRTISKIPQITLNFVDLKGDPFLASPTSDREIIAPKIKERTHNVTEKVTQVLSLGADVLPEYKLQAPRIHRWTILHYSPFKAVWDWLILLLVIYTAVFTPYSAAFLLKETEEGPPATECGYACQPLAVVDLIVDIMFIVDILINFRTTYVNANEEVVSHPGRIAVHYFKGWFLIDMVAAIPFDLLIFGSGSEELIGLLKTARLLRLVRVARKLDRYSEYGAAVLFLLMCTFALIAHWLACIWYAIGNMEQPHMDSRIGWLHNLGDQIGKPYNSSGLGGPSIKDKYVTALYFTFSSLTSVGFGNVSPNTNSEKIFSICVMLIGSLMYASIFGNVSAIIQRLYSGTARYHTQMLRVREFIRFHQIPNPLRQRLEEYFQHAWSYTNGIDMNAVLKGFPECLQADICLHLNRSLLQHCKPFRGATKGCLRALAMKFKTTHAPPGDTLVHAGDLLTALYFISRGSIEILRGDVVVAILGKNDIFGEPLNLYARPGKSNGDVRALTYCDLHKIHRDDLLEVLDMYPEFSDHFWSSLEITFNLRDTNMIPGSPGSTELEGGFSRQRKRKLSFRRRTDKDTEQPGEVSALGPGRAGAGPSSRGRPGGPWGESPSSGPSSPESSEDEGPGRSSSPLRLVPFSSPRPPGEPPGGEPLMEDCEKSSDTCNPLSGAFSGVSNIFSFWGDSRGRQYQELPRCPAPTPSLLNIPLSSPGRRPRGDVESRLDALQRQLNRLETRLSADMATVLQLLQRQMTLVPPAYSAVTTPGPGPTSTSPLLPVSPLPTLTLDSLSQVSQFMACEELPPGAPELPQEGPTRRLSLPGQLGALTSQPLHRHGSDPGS

Structure (SMILES)	EC50 [1]	Human microsome stability (T½, min) [2]	Colon enzyme inhibition 30 min following 10 mpk PO [3]	IC50 [4]	inhibition of colon 15-PGDH activity at 30 minutes [3]
COCC[S@@+]([O-])c1sc2nc(-c3cnc(N)nc3)cc(-c3ccccc3)c2c1N [Example 87]	≤ 10 nM	≥60 min	>90%	> 15000 nM	
COCCC[S@@+]([O-])c1sc2nc(-c3cnc(N)nc3)cc(-c3ccccc3)c2c1N	≤ 10 nM	<60 min	>90%	≤ 15000 nM	
COCC[S@@+]([O-])c1sc2nc(-c3cncnc3)cc(-c3ccccc3)c2c1N [Example 85]	≤ 10 nM	≥60 min	>90%	> 15000 nM	
Nc1c([S@+]([O-])C2CCC2)sc2nc(-c3cnc(NCCO)nc3)cc(C3CC3)c12	≤ 10 nM	≥60 min		> 15000 nM	
COCCC[S@@+]([O-])c1sc2nc(-c3cncnc3)cc(-c3ncccn3)c2c1N [Example 111]	> 10 nM	≥60 min	<70%	> 15000 nM	
COCCC[S@@+]([O-])c1sc2nc(-c3cccnc3)cc(-c3ccccc3)c2c1N	≤ 10 nM	<60 min		≤ 15000 nM	−55.2%
COCC[S@@+]([O-])c1sc2nc(-c3cnc(N)nc3)cc(C3CC3)c2c1N [Example 150]	≤ 10 nM	≥60 min	>90%	> 15000 nM	
CCCC[S@@+]([O-])c1sc2nc(-c3nccs3)cc(-c3cnc(C)n3C)c2c1N	> 10 nM	<60 min	<70%		−55.2%
Nc1c([S@+]([O-])C2CCC2)sc2nc(-c3cnc(NCCO)nc3)cc(-c3ccccc3)c12 [Example 51]	≤ 10 nM	≥60 min	>90%	> 15000 nM	
COCC[S@@+]([O-])c1sc2nc(-c3cnc4nn(C)cc4c3)cc(C3CC3)c2c1N	≤ 10 nM	≥60 min	>90%	> 15000 nM	
COCCC[S@@+]([O-])c1sc2nc(-c3cccnc3)cc(C(F)(F)F)c2c1N [Example 78]	≤ 10 nM	≥60 min	<70%	> 15000 nM	
COCC[S@@+]([O-])c1sc2nc(-c3cnc(NCCO)nc3)cc(-c3ccccc3)c2c1N	≤ 10 nM	≥60 min		> 15000 nM	
Cn1nccc1-c1cc(-c2cncnc2)nc2sc([S@+]([O-])C3CCC3)c(N)c12	≤ 10 nM	≥60 min		> 15000 nM	
COCC[S@@+]([O-])c1sc2nc(-c3cccnc3)cc(C(F)(F)F)c2c1N [Example 80]	≤ 10 nM	≥60 min	<70%	> 15000 nM	
COCCC[S@@+]([O-])c1sc2nc(-c3ccc(=O)n(C)c3)cc(-c3ccccc3)c2c1N	≤ 10 nM	≥60 min	>90%	> 15000 nM	
